In patent US20110172305A1, “Endocannabinoids for Enhancing Growth and Development in Infants” (priority 2007, published 2011):

Assays:
[1] = Nipple attachment of pups after CB1 receptor blockade; format: in vivo, mouse (Sabra or ICR strain); conditions: pups of Sabra or ICR strain injected s.c. within 24 h of birth; FIG. 4
[2] = 'Lapping': food ingestion by licking from a dish, CB1 receptor-blocked pups; format: in vivo, mouse; conditions: pups allowed to lick milk/cream mixture rather than suck

Cc1c(C(=O)NN2CCCCC2)nn(-c2ccc(Cl)cc2Cl)c1-c1ccc(Cl)cc1 [Rimonabant]
nipple attachment score (0-2) [1]: scored almost zero
food intake (milkband size) after one session of lapping ([2]; FIG. 5A): completely normalized
body weight gain after one session of lapping ([2]; FIG. 5B): completely normalized
